Structure (SMILES) | log10 OH rate constant (cm³/molecule/s)
COP(=S)(OC)OC | -10.2
C1CN1 | -11.2

Source: the OPERA property sets (Mansouri et al. 2018)
